# From PubChem BioAssay AID504357 (The Scripps Research Institute Molecular Screening Center, 2011)
# Chains of the proteins cited; added tags and fusions are not shown.
# UniProt P35372, whole entry, looked up: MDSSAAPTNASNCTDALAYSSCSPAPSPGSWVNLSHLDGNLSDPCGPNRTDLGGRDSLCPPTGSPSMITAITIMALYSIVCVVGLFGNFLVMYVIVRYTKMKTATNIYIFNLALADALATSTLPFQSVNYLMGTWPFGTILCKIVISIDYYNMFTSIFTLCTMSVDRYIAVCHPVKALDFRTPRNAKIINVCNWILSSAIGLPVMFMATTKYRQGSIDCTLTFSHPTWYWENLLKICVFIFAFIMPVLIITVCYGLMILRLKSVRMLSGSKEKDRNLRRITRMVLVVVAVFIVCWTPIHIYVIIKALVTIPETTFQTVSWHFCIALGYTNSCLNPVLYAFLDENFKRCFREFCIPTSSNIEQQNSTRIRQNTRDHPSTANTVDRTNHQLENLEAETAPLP
# UniProt P41143, whole entry, looked up: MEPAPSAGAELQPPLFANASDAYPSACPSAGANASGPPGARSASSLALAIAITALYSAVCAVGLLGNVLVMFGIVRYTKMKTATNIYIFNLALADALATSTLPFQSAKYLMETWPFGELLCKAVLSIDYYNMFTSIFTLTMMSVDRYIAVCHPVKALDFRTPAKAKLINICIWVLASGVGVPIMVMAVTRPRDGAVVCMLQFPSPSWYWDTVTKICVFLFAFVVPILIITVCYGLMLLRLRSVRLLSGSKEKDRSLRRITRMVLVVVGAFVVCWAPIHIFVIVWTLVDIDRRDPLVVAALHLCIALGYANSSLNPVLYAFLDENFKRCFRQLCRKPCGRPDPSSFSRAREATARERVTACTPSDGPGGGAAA
# This is a selection; strong and weak results do not stand in their true shares. Calls of active or inactive are those of the source. No stated cut-off is given here; in the data, active means inhibition above about 22% (passing the limit was not always enough); inactive means the rest.
# Target: Mu-type opioid receptor (Homo sapiens) + Delta-type opioid receptor (Homo sapiens) (UniProt P35372+P41143)
# Assay: inverse agonists of MOR-DOR heterodimerization, primary screen, cell-based, luminescence (AID 504357);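 further: 0% = cells with DMSO and 100% = wells without cells with DMSO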
# Conditions: cell-based MOR-DOR heterodimer luminescence, inverse agonism; at 9.3 µM; stronger effect = higher value
row,Structure (SMILES),inhibition
1,CC(Cc1ccc(O)cc1)NCC(O)c1cc(O)cc(O)c1 (stereo unspecified),inactive: 10.9%
